The source of these data is ChEMBL document CHEMBL1131132, “Acetylcholinesterase inhibitors: synthesis and structure-activity relationships of omega-[N-methyl-N-(3-alkylcarbamoyloxyphenyl)- methyl]aminoalkoxyheteroaryl derivatives” (J Med Chem, 1998).

SMILES strings stand for the structures.

As a reminder, the IC50 is the concentration that gives 50% inhibition. Read a low IC50 as greater potency.

This assay deals with T1, Acetylcholinesterase (Rattus norvegicus, UniProt P37136).
T1 sequence (P37136 whole entry): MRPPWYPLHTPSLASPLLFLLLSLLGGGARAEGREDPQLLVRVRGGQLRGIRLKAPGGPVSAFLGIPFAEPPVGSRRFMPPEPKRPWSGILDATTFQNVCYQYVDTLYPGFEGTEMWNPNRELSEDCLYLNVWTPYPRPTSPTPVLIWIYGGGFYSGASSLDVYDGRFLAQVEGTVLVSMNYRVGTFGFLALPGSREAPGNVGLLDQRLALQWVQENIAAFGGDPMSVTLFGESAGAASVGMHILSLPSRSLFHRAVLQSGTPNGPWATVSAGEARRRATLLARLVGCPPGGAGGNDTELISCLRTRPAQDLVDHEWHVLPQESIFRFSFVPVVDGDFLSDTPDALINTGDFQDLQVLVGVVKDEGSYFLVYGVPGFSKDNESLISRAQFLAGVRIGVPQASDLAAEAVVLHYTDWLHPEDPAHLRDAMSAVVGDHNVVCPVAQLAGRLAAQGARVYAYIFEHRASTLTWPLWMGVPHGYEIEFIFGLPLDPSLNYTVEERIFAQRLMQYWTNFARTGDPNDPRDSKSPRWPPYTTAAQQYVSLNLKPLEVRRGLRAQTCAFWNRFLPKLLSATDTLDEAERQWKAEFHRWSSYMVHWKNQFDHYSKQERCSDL
In words: Inhibitory concentration against rat brain acetylcholinesterase AChE. An outline of the steps: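 Adult Wistar rat cerebral cortex, stored frozen, homogenized 1:200 w/v in 25 mM phosphate pH 7.4, warmed 37 °C 5 min, spun 50000g 15 min at 4 °C; pellet resuspended as AChE-enriched fraction. Compound in PBS pH 7.4 with tritiated ACh (final 0.4 mM), 15 min at 37 °C; stopped with chloroacetic acid/NaCl/NaOH; ³H-acetate extracted into isoamyl alcohol/toluene, scintillation counted.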
`CCN(CCCOc1ccc2c(=O)c3ccccc3oc2c1)Cc1cccc(OC(=O)NC)c1`: half-maximal inhibition (IC50) was put at 4 nM. The compound `CCNC(=O)Oc1cccc(CN(C)CCCOc2ccc3c(=O)c4ccccc4oc3c2)c1` yielded an IC50 of 40 nM. This IC50 lies about 10-fold higher than the previous one.

On to `CNC(=O)Oc1cccc(CN(C)CCCOc2ccc3c(=O)c4ccccc4oc3c2)c1` [XANTHOSTIGMINE], for which it took 20 nM to reach half-maximal inhibition (IC50).
